Series [1] is described as follows: preclinical toxicology. Type of series: in vivo.
Series [2] in a line: time-retention and tissue distribution. Type of series: in vivo. As to the method:
The preparation has a sufficiently high parameter of time-retention in an organism (almost 22 hours).

Setting [3] is: as much as possible tolerable doses.

As to “1(10)β-epoxy-13-dimethylamino-5,7α,6,11β(H)-guaia-3(4)-en-6,12-olide hydrochloride [Arglabin]”, in series [1] (setting [3]), the “function state of liver, kidneys, cardiovascular system, breathing, peripheral nervous system” value is given as “does not break”; the “influence on morphological structure of peripheral blood and osseous tissue” value is “does not influence”. Besides, in series [1] (in vivo), the “allergenic and pyrogenic properties” value is listed as “are not revealed”; the “embryotoxic, teratogenic and mutafacient properties” value was “has no embryotoxic, teratogenic and mutafacient properties”. In series [1] (intravenous, intraperitoneal, intramuscular, hypodermic introduction), the topical-irritating action result was “does not render topical-irritating action”. For the same substance, the “tissues with the greatest concentrations” value in series [2] (during the first hour) was “lien and lung”. Moreover, the “tissues in which it is also collected” value in series [2] (in 3 hours) was “liver and skeletal muscles”. In series [2] (in vivo), the “penetration from central camera (blood) into peripheral tissues” value is “quickly penetrates” and the “time-retention in an organism” value was roughly 22 h.

(Values after patent US20090171105A1, “METHOD FOR PRODUCTION OF HYDROCHLORIDE 1(10) BETA-EPOXY-13-DIMETHYLAMINO-5,7ALPHA,6,11BETA (H)-GUAIA-3(4)-EN-6,12-OLIDE, THE LYOPHILIZED ANTITUMOR PREPARATION 'ARGLABIN'” (priority 2006, published 2009).)
